These results are taken from PubChem BioAssay AID1066 (SRMLSC, 2008).

Molecules are shown by their SMILES. This is a selection; strong and weak results do not stand in their true shares. Activity calls are given as the source filed them.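 The calls were made as follows: active = inhibition above a set limit, the median over all tested compounds plus 3 SD (cut at about 9.5% in these data); inconclusive = no clear call, values can overlap the other calls; inactive = the rest.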

This test deals with HMG-CoA reductase (Enterococcus faecalis, mvaE). Kind of test: class II HMG-CoA reductase enzyme inhibition – biochemical, Enterococcus faecalis, primary screen (AID 1066).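 Also: enzyme runs in reverse so mevalonate oxidation gives rising NADPH absorbance; 0% = complete reaction with DMSO and 100% = background rate lacking mevalonate.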 The settings on record: purified E. faecalis HMGR, NADPH absorbance 340 nm kinetic; at 10 µM; stronger effect = higher value.
As to `CC(C)(C)C(=O)NC(Sc1ccccc1)C(Cl)(Cl)Cl` (centres undefined), the inhibition (commonly the change of the read-out against control, counted positive when it falls) was inactive: -0.87%.

In the case of `CCOc1ccc(C2=NCC(CBr)S2)cc1` (centres undefined), the inhibition was inactive: -4.15%.

Consider `O=P1(Nc2nc3ccc(Cl)cc3s2)COc2ccccc2O1` (centres undefined), for which the inhibition was inactive: -4.36%.

As to `CC(=O)Nc1ccc(Oc2c([N+](=O)[O-])cc([N+](=O)[O-])cc2[N+](=O)[O-])cc1`, the inhibition is inactive: -4.03%.

Take `CCOC(=O)NC(Sc1ccccc1)C(Cl)(Cl)Cl` (centres undefined): the inhibition was inactive: 2.19%.

Regarding `c1ccc(-c2nn[nH]n2)c(-c2nn[nH]n2)c1`, the inhibition is inactive: -2.44%.

For `O=C(NC1CCS(=O)(=O)C1)NP(=S)(Oc1ccccc1)Oc1ccccc1` (centres undefined), the inhibition is inactive: -1.24%.

For `CCNC(=S)/N=C(\N)N[N+](=O)[O-]`, the inhibition is inactive: -1.92%.

`O=c1c2cc([N+](=O)[O-])ccc2[nH]c2c([N+](=O)[O-])cc([N+](=O)[O-])cc12`: the inhibition is inactive: 2.34%.

Regarding `CCC(=O)N1C2C3N(C(=O)CC)C1C1N(C(=O)CC)C(C(N1C(=O)CC)N3C(=O)CC)N2C(=O)CC`, the inhibition was inactive: -4.82%.

Consider `Cc1ccc(OP(=O)(Nc2ccccn2)Oc2ccc(C)cc2)cc1`, for which the inhibition was inactive: 3.19%.

In the case of `CC(=O)NC(SC(=S)N(CC(C)C)CC(C)C)C(Cl)(Cl)Cl` (centres undefined), the inhibition is inactive: 1.66%.

For the compound `COC(=O)c1cc2c(s1)N=C(c1ccccc1)N(C)P2(=O)N1CCOCC1` (centres undefined), the inhibition is inactive: -2.28%.

As for `O=P(Nc1ccccn1)(c1ccc(Br)cc1)c1ccc(Br)cc1`, the inhibition is inactive: 0.32%.

In the case of `O=C(OC1CN2CCC1CC2)c1cccc(Cl)c1` (centres undefined), the inhibition was inactive: -7.74%.

As to `C(Cc1nn[nH]n1)Cc1nn[nH]n1`, the inhibition is inactive: -5.01%.

`CC(=O)NC(SC(=S)N(C)C)C(Cl)(Cl)Cl` (centres undefined): the inhibition is inactive: -3.51%.

Regarding `c1nnnn1CCn1cnnn1`, the inhibition is inactive: -0.96%.

Take `O=P(Nc1nccs1)(c1ccccc1)c1ccccc1`: the inhibition is inactive: 2.74%.

For the compound `CC(C)C(=O)NC(Sc1ccccc1)C(Cl)(Cl)Cl` (centres undefined), the inhibition is inactive: -5.38%.

For the compound `O=[N+]([O-])c1cc([N+](=O)[O-])c(CCNc2ccccc2)c([N+](=O)[O-])c1`, the inhibition was inactive: 1.83%.

For `CCc1nc2c(n1)c1c(non1O)c1c2no[n+]1[O-]`, the inhibition was inactive: -0.55%.

Take `Cc1ccc(NP(=O)(Oc2ccccc2)Oc2ccccc2)nc1`: the inhibition was inactive: -0.45%.

As for `CC(=O)N1C2C3N(C(C)=O)C1C1N(C(C)=O)C(C(N1C(C)=O)N3C(C)=O)N2C(C)=O`, the inhibition was inactive: -5.78%.

Turning to `O=[N+]([O-])c1cccc2n[nH]nc12`, the inhibition was inactive: -5.99%.

Turning to `COc1ccc(C2=NCC(CBr)S2)cc1` (centres undefined), the inhibition was inactive: -1.29%.

For `CC1CCN(C(=O)Oc2c(Cl)cc(Cl)c3cccnc23)CC1`, the inhibition was inactive: 3.75%.

As for `CN(C)C(=O)OCCc1n(C)cc[n+]1C`, the inhibition was inactive: -2.14%.

Take `CC(C)=N/N=C(\N)N[N+](=O)[O-]`: the inhibition is inactive: -2.21%.

In the case of `CCN(/C(=N/P(=O)(N1CCOCC1)N1CCOCC1)N1CCOCC1)c1ccc(OC)cc1`, the inhibition was inactive: 1.37%.

On to `O=[N+]([O-])c1ncn(CCn2ncnc2[N+](=O)[O-])n1`, for which the inhibition is inactive: 1.1%.

Regarding `Cc1cc(SC(NC(=O)c2ccc(F)cc2)C(Cl)(Cl)Cl)ncn1` (centres undefined), the inhibition was inactive: 1.17%.

As for `CCOP(=O)(Nc1ccccc1)OCC`, the inhibition was inactive: 1.31%.

Take `CCN(N=Nc1nonc1N)c1nonc1N`: the inhibition is inactive: -0.1%.

As to `CN1CCCC(OC(=O)C(c2ccccc2)c2ccccc2)C1` (centres undefined), the inhibition was inactive: -0.04%.

`Clc1ccc(Cl)c(NC2=NCC(CBr)S2)c1` (centres undefined): the inhibition was inactive: -0.15%.

With `COc1ccccc1OP(=O)(Nc1ccc(C)cn1)Oc1ccccc1OC`, the inhibition is inactive: -3.71%.

With `Cc1ccc(N/C(=N/P(=O)(N2CCOCC2)N2CCOCC2)N2CCOCC2)cc1`, the inhibition is inactive: -11.3%.

Turning to `NC(=O)c1cc([N+](=O)[O-])cc([N+](=O)[O-])c1N`, the inhibition was inactive: 1.76%.

With `O=C(NC(Sc1ccncn1)C(Cl)(Cl)Cl)c1ccccc1` (centres undefined), the inhibition was inactive: 2.58%.

Regarding `Cc1c2non([O-])c-2c(C)[n+](=O)[n+]1[O-]`, the inhibition was inactive: -4.09%.

`Oc1ccccc1CNc1ccccn1`: the inhibition is inactive: -2.15%.

For `CC(C)CC(=O)NC(Sc1ccc(Cl)cc1)C(Cl)(Cl)Cl` (centres undefined), the inhibition was inactive: -3.75%.

For the compound `COc1ccc2nc(NP(=O)(c3ccccc3)c3ccccc3)sc2c1`, the inhibition is inactive: -1.42%.

For `Cc1c2c(nc3ccccc13)SC(C(Cl)Cl)C2` (centres undefined), the inhibition was inactive: -3.11%.

Turning to `Cc1cc(=O)[nH]c(N[N+](=O)[O-])n1`, the inhibition was inactive: -4.34%.

For the compound `O=C(OC1CN2CCC1CC2)C12CC3CC(CC(C3)C1)C2` (centres undefined), the inhibition is inactive: 1.59%.

As to `COc1ccc(N/C(=N/P(=O)(N2CCOCC2)N2CCOCC2)N2CCOCC2)cc1`, the inhibition is inactive: -1.27%.

With `Cc1ccc2nc3c(c(C)c2c1)CC(C(Cl)Cl)S3` (centres undefined), the inhibition is inactive: -3.1%.

With `O=[N+]([O-])c1cc([N+](=O)[O-])c(-c2ccn[nH]2)s1`, the inhibition was inactive: -4.93%.

Turning to `CC(C)NC(=O)NP(=O)(Oc1ccccc1)Oc1ccccc1`, the inhibition was inactive: -16.1%.

Consider `CCN(CC)C(=S)SC(NC=O)C(Cl)(Cl)Cl` (centres undefined), for which the inhibition is inactive: -0.98%.

Turning to `ClCCSc1nnc(-c2cccnc2)o1`, the inhibition was inactive: -4.48%.

Turning to `Cc1cc(SC(NC(=O)c2ccccc2)C(Cl)(Cl)Cl)nc(C(C)C)n1` (centres undefined), the inhibition was inactive: -1.64%.

`Cc1cc(SC(NC=O)C(Cl)(Cl)Cl)ncn1` (centres undefined): the inhibition was inactive: -3.62%.

Take `O=P(Nc1ccccn1)(c1cccc2ccccc12)c1cccc2ccccc12`: the inhibition was inactive: -2.83%.

Regarding `O=C(COc1ccccc1)OC1CN2CCC1CC2` (centres undefined), the inhibition is inactive: -1.48%.

Regarding `COP1(=S)c2c(C)nn(CCC#N)c2N=C(c2ccc(F)cc2)N1C` (centres undefined), the inhibition was inactive: -12.9%.

`CCC(C)N(CC(C)C)C(=S)SC(NC(C)=O)C(Cl)(Cl)Cl` (centres undefined): the inhibition is inactive: -6.6%.

In the case of `Clc1n[nH]nc1-c1nn[nH][15n]1`, the inhibition is inactive: -3.21%.

Turning to `O=P1(Nc2ccccn2)COc2ccccc2OC1`, the inhibition was inactive: -1.27%.

Regarding `CN(C(=O)Cc1ccc(Cl)c(Cl)c1)[C@@H]1CCCC[C@H]1N1CCCC1`, the inhibition is inactive: 4.79%.

On to `CC(C)/C=N\N=C(\N)N[N+](=O)[O-]`, for which the inhibition was inactive: -0.66%.

Turning to `CN(C)C1(CNC(=O)c2ccc(S(C)(=O)=O)cc2)CCCCC1`, the inhibition is inactive: 6.34%.

`CC1CCC(C(C)C)C(OP(=O)(Nc2ccccn2)c2ccccc2)C1` (centres undefined): the inhibition was inactive: -6.08%.

Regarding `Cc1nn(-c2ccccc2)c2c1P(=O)(N1CCOCC1)N(C)C(c1ccccc1)=N2` (centres undefined), the inhibition was inactive: -3.19%.

Take `Cc1ccc(OCC(=O)OC2CN3CCC2CC3)cc1` (centres undefined): the inhibition was inactive: -0.43%.

For the compound `O=P1(Nc2ccc(Br)cn2)COc2ccccc2OC1`, the inhibition was inactive: 2.17%.

For `O=P1(Nc2ncccn2)COc2ccccc2OC1`, the inhibition was inactive: 4.12%.

Take `O=P(Nc1nccs1)(Oc1ccccc1)Oc1ccccc1`: the inhibition was inactive: -3.61%.

For the compound `O=P(Nc1nccs1)(c1ccccc1)c1nc2ccccc2s1` (centres undefined), the inhibition is inactive: -9.85%.

As for `CCOP1(=S)c2c(C)nn(CCC#N)c2N=C(c2ccccc2F)N1C` (centres undefined), the inhibition was inactive: -9.14%.

For the compound `CCOP1(=S)c2c(C)nn(CCC#N)c2N=C(c2ccc(F)cc2)N1C` (centres undefined), the inhibition was inactive: -1.1%.

With `O=[N+]([O-])c1ccc2c(c1)nnn2O`, the inhibition is inactive: -4.53%.

Consider `Cc1cccc(OCC(=O)OC2CN3CCC2CC3)c1` (centres undefined), for which the inhibition was inactive: -5.02%.

Regarding `COc1cc(C(=O)NCC2(N3CCOCC3)CCCCC2)cc(Cl)c1OC(C)C`, the inhibition is inactive: -5.69%.

Regarding `CCOP(=O)(Nc1cccc2ccccc12)OCC`, the inhibition is inactive: 1.2%.

As to `COc1cc(C2NCCC3(OCCO3)C2(C)C)cc(OC)c1OC` (centres undefined), the inhibition was inactive: -7.64%.

`Cc1ccc(NCCc2c([N+](=O)[O-])cc([N+](=O)[O-])cc2[N+](=O)[O-])cc1`: the inhibition is inactive: -0.92%.
